# Measured values as given in patent publication EP4653437A2 (Innovo Therapeutics Inc., priority 2023, dated 2024).
# Protein sequences, listed by entry. Tags and fused reporters are not part of them.
# UniProt P15428, whole entry: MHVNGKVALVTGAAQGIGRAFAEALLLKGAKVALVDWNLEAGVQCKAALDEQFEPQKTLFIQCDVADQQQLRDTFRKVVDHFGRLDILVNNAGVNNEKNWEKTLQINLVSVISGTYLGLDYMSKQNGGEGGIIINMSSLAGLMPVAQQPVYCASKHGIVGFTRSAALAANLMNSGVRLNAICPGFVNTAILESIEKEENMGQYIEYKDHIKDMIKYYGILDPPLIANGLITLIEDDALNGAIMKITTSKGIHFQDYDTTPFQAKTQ
# What was measured:
# human 15-PGDH = human 15-PGDH (Homo sapiens, UniProt P15428); assay: Evaluation of 15-PGDH inhibitory activity (fluorescence enzyme assay, NAD+/PGE2); details: read-out: IC50 value, human 15-PGDH enzyme, fluorescence Vmax
# A549 cells = assay: Measurement of PGE2-increasing activity in A549 cells (IL-1β stimulated, PGE2 quantified in supernatant); assay type: cell-based; details: concentration of 1 µM of each compound; IL-1β treated A549 cells
structure (smiles),measurement,setting,value
Cn1cnc2cc(-c3cccc4c(C(=O)N5CCCCC5)cnn34)cnc2c1=O,pIC50,human 15-PGDH,> 7.00
same,Increased PGE2 production in A549 cells,A549 cells,++ (PGE2 increasing ability ≥ 1.5)

# pIC50: −log10 of the molar value.
